Source: ChEMBL document CHEMBL4330080, “Hydroxyazole scaffold-based Plasmodium falciparum dihydroorotate dehydrogenase inhibitors: Synthesis, biological evaluation and X-ray structural studies” (Eur J Med Chem, 2019)

Target: T1, Dihydroorotate dehydrogenase (Plasmodium falciparum, UniProt Q54A96)
T1 sequence (Q54A96 whole entry): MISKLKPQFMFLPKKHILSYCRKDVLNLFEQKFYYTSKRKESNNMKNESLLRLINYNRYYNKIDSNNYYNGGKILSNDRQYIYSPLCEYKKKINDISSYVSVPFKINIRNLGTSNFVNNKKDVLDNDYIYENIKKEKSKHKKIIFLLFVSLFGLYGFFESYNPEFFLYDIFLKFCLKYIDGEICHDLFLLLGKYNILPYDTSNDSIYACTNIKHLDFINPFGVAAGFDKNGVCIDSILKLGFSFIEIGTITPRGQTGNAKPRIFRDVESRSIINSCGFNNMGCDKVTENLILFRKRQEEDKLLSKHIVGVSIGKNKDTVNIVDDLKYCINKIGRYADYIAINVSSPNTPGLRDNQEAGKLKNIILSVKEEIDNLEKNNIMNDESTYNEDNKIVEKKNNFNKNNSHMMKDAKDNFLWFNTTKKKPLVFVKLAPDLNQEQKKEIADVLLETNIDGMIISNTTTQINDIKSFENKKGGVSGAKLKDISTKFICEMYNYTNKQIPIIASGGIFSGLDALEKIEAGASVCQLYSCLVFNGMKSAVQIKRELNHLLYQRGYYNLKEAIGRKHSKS
Assay: Inhibition of Plasmodium falciparum recombinant N-terminal His6-tagged DHODH (159-569 residues) expressed in Escherichia coli BL21(DE3) using DHO as substrate measured every min for 5 mins by DCPI dye-based photometric analysis
Summary of the method: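 N-terminally truncated recombinant enzyme, His-tag IMAC then size exclusion purified, in 50 mM Tris/HCl pH 7.8, 150 mM KCl, 0.1% Triton X-100 with 60 μM DCIP and 20 μM decylubiquinone. Compounds added at 1% final DMSO, or 5% for weak binders. Started with 200 μM DHO; initial rate from DCIP absorbance at 600 nm over the first 5 min. IC50 is mean ± SE of three experiments.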

Cc1cc(Nc2ccc3ccccc3c2)n2ncnc2n1 gave an IC50 of 65 nM.
